# Source: patent US20240245770A1, “COMPOSITIONS AND METHODS FOR TREATING NEUROMUSCULAR DISORDERS” (The Regents of the University of California, priority 2019, published 2024)
# What was measured:
# [1] = test system: serum cytokine/chemokine/growth factor/ligands of ALS patient; assay: Serum Luminex, before and after NAC treatment; assay type: in vivo, human
# Experimental: (§1) Increased cytokine/chemokine/growth factor/ligands in serum of ALS patient compared to healthy twin and control (Tables 85-86 and FIG. 69). Serum Luminex. Serum from patients were used to determine the levels of cytokine/chemokine/growth factor/ligands secretion using multiplex luminex assay. Scatter plot was prepared using the levels of cytokine/chemokine/growth factor/ligands in serum obtained at different dates from patients as compared to controls.
# Increased cytokine/chemokine/growth factor/ligands in serum of ALS patients compared to healthy twin (Tables 87-89). Serum Luminex. Serum from patients were used to determine the levels of cytokine/chemokine/growth factor/ligands secretion using multiplex luminex assay.
# as §1, with “21 plex before NAC.” for “Increased cytokine/chemokine/growth factor/ligands in serum of ALS patient compared to healthy twin and control (Tables 85-86 and FIG. 69).”
# as §1, with “Serum” for “Increased cytokine/chemokine/growth factor/ligands in serum of ALS patient compared to healthy twin and control (Tables 85-86 and FIG. 69). Serum”
# Fold increase in respective cytokines before and after NAC treatment in serum from ALS patient as compared to healthy twin. […] Serum Luminex. Serum from patients were used to determine the levels of cytokine/chemokine/growth factor/ligands secretion using multiplex luminex assay. Scatter plot was prepared using the levels of cytokine/chemokine/growth factor/ligands in serum obtained at different dates from patients as compared to controls.
# [2] = test system: ALS; conditions: cited from earlier work
# [3] = JC sera Apr. 30, 2020 (NAC infusion)
compound,measurement,setting,value
"CC(=O)N[C@@H](CS)C(=O)O [NAC, N-Acetyl-Cysteine]",IL-5,[1]; Ave JC 4/5 to 6/24,2.13
same,IL-5,[1]; Ave JC sera for NAC infusion,2.13 pg/mL
same,IL-6,"[1]; JC sera Apr. 16, 2020",1.55 pg/mL
same,IL-6,"[1]; JC sera Apr. 23, 2020",1.55 pg/mL
same,IL-6,"[1]; JC sera Apr. 30, 2020",2.34 pg/mL
same,IL-13,[1]; [3],4.26 pg/mL
same,IL-17A,[1]; [3],5.22 pg/mL
same,IL-6,"[1]; JC sera Jun. 24, 2020",1.31 pg/mL
same,IL-5,"[1]; JC sera May 12, 2020",2.05 pg/mL
same,IL-17A,"[1]; JC sera May 21, 2020 (NAC infusion)",2.85 pg/mL
Nc1nc2ccc(OC(F)(F)F)cc2s1 [Riluzole],increase of survival rates at 12 months,[2],10%
same,prolongation of survival,[2],6 months
